Assay results taken from article PMC3355094 (PLoS Pathogens, 2012).
Like-named read-outs stand apart in the source and are kept apart here.

Chains of the proteins cited; added tags and fusions are not shown. Residues count along the entry.
UniProt B3GA02, 2-142 limits assumed: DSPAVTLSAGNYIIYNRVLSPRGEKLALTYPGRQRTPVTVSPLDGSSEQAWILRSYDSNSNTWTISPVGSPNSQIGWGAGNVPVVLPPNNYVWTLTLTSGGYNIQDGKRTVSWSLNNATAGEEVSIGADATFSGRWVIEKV

Key:
CCL2 wild-type [1] = molecular target: T1, CCL2 wild-type (Coprinopsis cinerea, UniProt B3GA02)
CCL2 wild-type [2] = molecular target: T1, CCL2 wild-type; test: Isothermal titration calorimetry, carbohydrates binding to CCL2 wild-type

Compound | Kd (CCL2 wild-type [1]) | Kd (CCL2 wild-type [2]; ITC, 299K, carbohydrate binding to CCL2 wild-type) | binding better than Lewis^X by a factor (CCL2 wild-type [2]; relative to Lewis^X trisaccharide)
CO[C@@H]1O[C@H](CO)[C@@H](O[C@@H]2O[C@H](CO)[C@H](O)[C@H](O[C@]3(C(=O)O)C[C@H](O)[C@@H](NC(C)=O)[C@H]([C@H](O)[C@H](O)CO)O3)[C@H]2O)[C@H](O[C@@H]2O[C@@H](C)[C@@H](O)[C@@H](O)[C@@H]2O)[C@H]1NC(C)=O | 162 µM | – | –
Neu5Acα2,3Galβ1,4[Fucα1,3]GlcNAcβ1-OMe | – | 162 µM | 3
